Values quoted from earlier work in patent US6440963B1, “Use of selective COX-2 inhibitors for the treatment of urinary incontinence” (Recordati S.A., Chemical and Pharmaceutical Company, priority 2001, dated 2002).

Sequences of proteins named here, by UniProt entry; tags and fusion partners are left off. Residues count along the entry.
UniProt P23219, 24-599: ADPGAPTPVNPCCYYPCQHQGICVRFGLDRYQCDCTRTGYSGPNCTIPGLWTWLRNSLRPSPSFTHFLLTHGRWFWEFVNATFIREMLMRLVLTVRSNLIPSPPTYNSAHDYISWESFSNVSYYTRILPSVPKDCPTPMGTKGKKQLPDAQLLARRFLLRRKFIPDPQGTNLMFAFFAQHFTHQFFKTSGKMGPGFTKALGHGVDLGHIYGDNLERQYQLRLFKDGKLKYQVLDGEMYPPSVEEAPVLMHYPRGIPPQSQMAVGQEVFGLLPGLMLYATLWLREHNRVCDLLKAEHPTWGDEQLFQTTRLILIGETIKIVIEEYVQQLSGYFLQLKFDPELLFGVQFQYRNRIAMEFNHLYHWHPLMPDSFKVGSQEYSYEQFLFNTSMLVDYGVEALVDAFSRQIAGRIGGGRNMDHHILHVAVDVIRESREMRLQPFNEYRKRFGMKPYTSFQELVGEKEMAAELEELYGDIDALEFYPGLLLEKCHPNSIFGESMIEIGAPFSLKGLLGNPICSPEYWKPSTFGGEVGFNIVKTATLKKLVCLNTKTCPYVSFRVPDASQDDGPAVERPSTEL

Target: T1, human COX-1 (Homo sapiens, UniProt P23219)
T1 construct: expressed in transfected cells; host or cells: CHO cells (stably transfected)
Conditions: CHO cells; cited from earlier work

SMILES: CS(=O)(=O)c1ccc(C2=C(c3ccccc3)C(=O)OC2)cc1 [Compound C]
- IC50: > 15 µM
